Measured values reported in patent publication US12594263B2, “CBL inhibitors and compositions for expansion of immune cells” (Nurix Therapeutics, Inc., priority 2019, dated 2026).

Experiments:
[1] = system: human tumor-infiltrating lymphocytes (TIL); test: Flow cytometry immunophenotyping of expanded TIL (lineage and memory markers); type: cell-based
Experimental: (§1) For TIL generation, single 8 mm^3 tumor fragments were added to each well of a 24-well plate containing 2 mL RPMI medium containing 25 mM HEPES, 10% heat inactivated human AB serum, 100 U/mL penicillin, 100 μg/ml streptomycin, 2 mM L-glutamine, 10 μg/ml gentamycin and 0.25 μg/ml Fungizone (Complete Medium; CM) with either 6000 IU/mL IL-2 in the presence or absence of 0.1-10 μM of a Cbl inhibitor, or with 0.1-10 μM of the Cbl inhibitor alone. The plates were placed in a humidified 37° C. incubator with 5% CO2. Half of the medium was replaced every two days after culture initiation. As wells became confluent, the contents were mixed vigorously, split into two daughter wells, and filled to 2 mL per well with RPMI medium with either 6000 IU/mL IL-2 in the presence or absence of 0.1-10 μM of the Cbl inhibitor, or with 0.1-10 μM of the Cbl inhibitor alone. Subsequently, half the media was replaced thrice weekly, cultures were split to maintain a cell density of 1×10^6 cells/mL. […] Mitochondrial markers including, Mitotracker, Mitoprobe, and 2-NBDG may also be used to assess differentiation and/or activation of cells. The initial TIL generation step may be shortened from 28 days to between about 7-11 days with similar results.
T lymphocytes were defined based on lineage and differentiation marker expression according to the developmental model (Restifo, Blood, 124:476-477, 2014), as shown in Table 4. […] Monocytes (CD14+), B cells (CD20+) and NK cells (CD56+) accounted for <10% of the total number of cells.

human CD4/8+ T cells = test: Intracellular IFN-γ in expanded T cells after PMA/ionomycin stimulation; type: cell-based; conditions: 25 ng/mL PMA and 0.5 μM ionomycin, 6 h
Experimental: T cell activity was determined by analysis of cytokine secretion. To investigate whether these expanded T cells are capable of responding to extracellular stimulation, T cells were stimulated with 25 ng/mL phorbol myristate acetate (PMA) and 0.5 μM ionomycin. After 90 min of stimulation, monensin, 1:50, (GolgiStop, BD Biosciences) was added. After 6 h, cells were stained for surface expression of CD4+, CD8+, CD45RA+, CD95+, CCR7+, CD62L+, and subsequently, fixed, permeabilized and stained for intracellular cytokine, IFN-7. After 6 hr, we observed a clear increase in accumulated intracellular IFN-γ, an important effector of the anti-tumor response when T cells had been expanded with IL-2 and Cbl inhibitor.

[2] = system: human T cells from peripheral blood mononuclear cells; test: Expansion of CMV pp65 reactive T cells from peripheral blood mononuclear cells; type: cell-based
Experimental: (§2) CMV pp65 (495-503) reactive T cells were expanded by thawing CMV seropositive donors (Conversant) and 2×10^6 cells/ml were resuspended in RPMI medium (Gibco) supplemented with 1% GlutaMax (Gibco), 1% non-essential amino acids (NEAA), penicillin/streptomycin (Gibco), 10% heat inactivated human AB serum (Corning), 1 μg/ml CMV pp65 (495-503) (Anaspec), 2 ng/mL IL-2 (R&D), and/or Cbl inhibitor (01, 1, 10 μM). PBMCs were cultured for eight days with IL-2 and/or Cbl inhibitor and replenished at day three and day five. At day eight, cells were harvested, and re-plated in low dose IL-2 (100 U/ml) and/or Cbl inhibitor at 2 million/ml in complete RPMI media for two days. At day eleven, cells were pooled and counted, and immunophenotyped at day 11 by flow cytometry by measuring expression of lineage (CD4, CD8) and differentiation (including CD45RA, CD45RO, CD95, CCR7, CD62L, TCF1, PD-1, TIM3, LAG3) markers.

CD8+ and CD4+ TIL = test: CD107a mobilization and granzyme B in pre-REP TIL after anti-CD3/CD28 stimulation; type: cell-based, human
Experimental: To investigate whether expanded TIL are capable of responding to extracellular stimulation, TIL were stimulated with anti-CD3/CD28 for 6 hours in the presence of secretion inhibitors and anti-CD107a. […] Upon stimulation, an average of 40% of CD8^+ TIL expanded with IL2 were positive for CD107A expression, and greater than 60% of CD8+ TIL expanded with IL2+ compound 103 were capable of producing CD107a (FIG. 27A). Upon stimulation, an average of 50% of CD4+ TIL expanded with IL2 were positive for CD107A expression, and greater than 60% of CD4+ TIL expanded with IL2+ compound 103 were capable of producing CD107a (FIG. 27B).
In the context of cytotoxicity, granzyme B (Grb), a protease secreted to mediate apoptosis, was assessed. […] From this, we conclude that Cbl inhibitor appears to expand TIL with increased cytotoxic potential.

[3] = system: human tumor-infiltrating lymphocytes (TIL); test: Rapid Expansion Protocol (REP) of TIL; type: cell-based; conditions: 6000 IU/mL
Experimental: Rapid Expansion Protocol (REP) used OKT3 (anti-CD3) antibody (Thermo Fisher Scientific) and IL-2 in the presence of irradiated, allogeneic feeder cells (Astarte Biologics) at a 200:1 ratio of feeder cells to responding TIL cells. PBMC, OKT3 antibody (30 ng/mL), complete medium (“CM”), AIM V media (GIBCO/BRL), and TIL effector cells were combined, mixed, and aliquoted to a 75 cm^2 tissue culture flask. Flasks were incubated upright at 37° C. in 5% CO2. IL-2 (6000 IU/mL) and/or Cbl inhibitor (0.1, 1, 10 μM) were added on day 2. On day 5, culture supernatant was removed by aspiration and media was replaced with a 1:1 mixture of CM/AIM V containing 6000 IU/mL IL-2 and/or Cbl inhibitor. On day 6, and every day thereafter, cell concentration was determined, and cells were split into additional flasks with additional medium containing 6000 CU/mL IL-2/Cbl inhibitor as needed to maintain cell densities around 1×10^6 cells/mL. About 14 days after initiation of the REP, cells were harvested and cryopreserved for future experimental analysis.
Only TIL that expanded during the pre-REP protocol were further expanded in the REP protocol: TIL1, TIL3, TIL4 & TIL6. The magnitude of TIL expansion during the REP varied between the tumor samples. For this reason, the total cell numbers are shown in Table 3 as a percentage of the IL-2 alone condition during the REP expansion protocol.

[4] = system: human T cells from donor PBMC; test: Flow cytometry immunophenotyping of T cells expanded from donor PBMC; type: cell-based; conditions: IL-2 alone
Experimental: as §2
T lymphocytes were defined based on lineage and differentiation marker expression according to the developmental model (Restifo, Blood, 124:476-477, 2014), as shown in Table 4.

[5] = system: human tumor-infiltrating lymphocytes (TIL); test: Expansion of TIL ex vivo from human tumor fragments (pre-REP, 24-well plate); type: cell-based; conditions: 6000 IU/mL
Experimental: Samples of human ovarian and colon tumors were obtained from the Cooperative Human Tissue Network (CHTN, c/o Vanderbilt University Medical Center, Nashville, Tenn.). Solid tumor specimens were carefully dissected free of surrounding fatty and necrotic areas. The tumors were sliced into 8 mm^3 (2×2×2 mm^3) fragments under sterile conditions using a scalpel and a scalpel holder.
as §1
The data in Figures and Tables 2-7 are with compound 103. […] For this reason, the total cell numbers are shown in Table 2 as a percentage of the IL-2 alone condition. […] FIGS. 4A-4D show the average numbers of cells with IL-2 alone; with 0.1, 1, or 10 μM of Cbl inhibitor; or IL-2 in combination with 0.1, 1, or 10 μM of Cbl inhibitor with ovary TIL and colon TIL. […] Thus, Cbl inhibitors support cell viability in the absence of IL 2 and enhance the effects of IL-2 in some tumor samples.

Substance: IL-2: cytokine used as standard culture condition for immune cell expansion (6000 IU/mL TIL, 2 ng/mL PBMC, 300 IU OT-1)
- CD4 TCM CD62L+ CCR7+, percentage of total TIL cell number on day 28 ([1]; TIL1 population, IL-2 alone): 1.8%
- CD4 TEM CD62L− CCR7−, percentage of total TIL cell number on day 28 ([1]; TIL1 population, IL-2 alone): 48.9%
- CD8 TCM CD62L+ CCR7+, percentage of total TIL cell number on day 28 ([1]; TIL1 population, IL-2 alone): 4.2%
- CD8 TEM CD62L− CCR7−, percentage of total TIL cell number on day 28 ([1]; TIL1 population, IL-2 alone): 48.7%
- Expansion of CD8+ versus CD4+ T lymphocytes in TIL culture ([1]; tumor sample, FIG. 7): essentially equivalent numbers of CD4+ and CD8+ T lymphocytes
- CD4/8+ T cells positive for IFN-γ expression (human CD4/8+ T cells): approximately 50%
- Percentage of total cell number relative to IL-2 alone on day 11 ([2]; Donor 1, 2 ng/mL): 100%
- Percentage of total cell number relative to IL-2 alone on day 11 ([2]; Donor 2, 2 ng/mL): 100%
- Percentage of total cell number relative to IL-2 alone on day 11 ([2]; Donor 3, 2 ng/mL): 100%
- CD8+ TIL positive for CD107A expression (CD8+ and CD4+ TIL; anti-CD3/CD28 for 6 hours (FIG. 27A)): 40%
- CD4+ TIL positive for CD107A expression (CD8+ and CD4+ TIL; anti-CD3/CD28 for 6 hours (FIG. 27B)): 50%
- Percentage of total cell number relative to IL-2 alone on day 42 (Pre-REP and REP) ([3]; TIL1 (ovary)): 100%
- Percentage of total cell number relative to IL-2 alone on day 42 (Pre-REP and REP) ([3]; TIL3 (ovary)): 100%
- Percentage of total cell number relative to IL-2 alone on day 42 (Pre-REP and REP) ([3]; TIL4 (colon)): 100%
- Percentage of total cell number relative to IL-2 alone on day 42 (Pre-REP and REP) ([3]; TIL6 (ovary)): 100%
- CD4 TCM, percentage of total cell number on day 11 [4]: 43.2%
- CD4 TEM, percentage of total cell number on day 11 [4]: 24.9%
- CD4 TsCM, percentage of total cell number on day 11 [4]: 16.9%
- CD8 TCM, percentage of total cell number on day 11 [4]: 25.4%
- CD8 TEM, percentage of total cell number on day 11 [4]: 11%
- CD8 TsCM, percentage of total cell number on day 11 [4]: 39.9%
- Percentage of total cell number relative to IL-2 alone on day 17 ([5]; TIL1 (ovary)): 100%
- Percentage of total cell number relative to IL-2 alone on day 17 ([5]; TIL2 (ovary)): 100%
- Percentage of total cell number relative to IL-2 alone on day 17 ([5]; TIL3 (ovary)): 100%
- Percentage of total cell number relative to IL-2 alone on day 17 ([5]; TIL4 (colon)): 100%
- Percentage of total cell number relative to IL-2 alone on day 17 ([5]; TIL5 (ovary)): 100%
- Percentage of total cell number relative to IL-2 alone on day 17 ([5]; TIL6 (ovary)): 100%
